The results in this text go back to article PMC8780434 (Viruses, 2022).

Series [1] in a line: Cell viability assay (CellTiter 96 AQueous) in HeLa cells. Particulars: human.
Series [2] is described as follows: Cell viability assay (CellTiter 96 AQueous) in RD cells. Particulars: human.

By CC50 is commonly meant the concentration giving 50% cytotoxicity. For `Oc1c(Cl)cc(Cl)c(Cl)c1Cc1c(O)c(Cl)cc(Cl)c1Cl` [Hexachorophene, Hexachlorophene], the values for the half-maximal cytotoxic concentration (CC50) at 12 h in series [1] and in series [2] were 23.8 µM and 28.6 µM, respectively.
